This is a selection; strong and weak results do not stand in their true shares. Some of these compounds have results that are not shown, active ones among them. Records with an inconclusive call do not appear. The source made the active and inactive calls. Calls come from the whole dose curve; as a rule, active = well fitted inhibition curve with a large enough effect; inconclusive = small, poorly fitted or top-dose-only effect; inactive = flat fitted curve, though single readings scatter.
What follows are compounds tested against N-terminal Xaa-Pro-Lys N-methyltransferase 1 (Homo sapiens) (UniProt Q9BV86) (assay: Primary qHTS for Inhibitors of N-terminal methyltransferase 1 (NTMT1): MTaseGlo Assay). Conditions: NTMT1 MTase-Glo SAH luminescence, purified enzyme; at 114 µM (top of the series).
Description: Assay Submitter (PI): Rong Huang Ph.D.
Purdue University, West Lafayette, IN 47907
The N-terminal methytransferase 1 is the first methyltransferase that methylates protein alpha-N-amines and plays an important role in regulating cell mitosis, chromatin interactions and DNA repair. It is observed to be over-expressed in various cancer patient tissues like malignant melanoma and colorectal cancer tissues. Knockdown of NTMT1 in cancer cells causes cell mitotic defects and enhances sensitivity to DNA damaging chemotherapeutics. […] These critical cellular processes in which NTMT1 is implicated, coupled with emerging links to cellular dysfunction, strengthen the inference that NTMT1 is a compelling novel anticancer target. Progress have been made in understanding the molecular properties of NTMT1 and the biological consequences of protein alpha-N-terminal methylation, but there are no specific small molecule probes available for NTMT1 to fully characterize its MTase activity. To address this unmet need, a panel of assay is created and established to enable quantitative high-throughput screening (qHTS) for novel, potent, and selective small molecule NTMT1 inhibitors. Two orthogonal qHTS that use different reagents (ThioGlo vs. MTaseGlo) are developed for primary robotic screening against the NCATS chemical library of more than 400,000 small molecules. Identified inhibitors are reacquired, validated, and further characterized.
MTaseGlo Assay is a luminescence screen that measure the activity of methyltransferases based on the reaction product S-adenosyl homocysteine (SAH). The substrate SAM is converted to SAH upon enzyme activation. MTase-Glo reagent and detection solution convert SAH to ATP and measure the light from the luciferase reaction.
Materials: NTMT1 enzyme, substrate SPKRIA, control peptide RCC1-6 is provided by the Huang laboratory.
SEQUENCE No. (e.g., 1, 2, 3, etc.); […] (e.g., Cells, Incubation, Reagent, etc.); VALUE; DESCRIPTION
1; Enzyme; 3 uL; Dispense enzyme mixture (final concentrations of 125 nM NTMT1 and 100 uM SAM) into Greiner 1536-well white / solid bottom assay plate (Greiner Bio One, Monroe, NC).
2; Compounds; 23 nL; Compounds and controls were transferred via a Kalypsys Pin Tool (Wako USA) equipped with a 1536-slotted pin array (Wako Automation, Richmond, VA)
3; Incubation; 15 min; Incubate at room temperature
4; Substrate; 1 uL; Dispense 1 uL of substrate at final concentration of 1 uM. Buffer solution was dispensed in control wells. The assay plate was covered with metal lids.
5; Incubation; 30 min; Incubate at room temperature, protected from lights.
6; Reagent; 1 uL; Dispensed 5x MTase-Glo detection reagent (R) into the assay plate. The plate was covered with metal lids.
7; Incubation; 30 min; Incubate the assay plates at room temperature in the dark to allow for SAH to be converted to ADP.
8; Reagent; 5 uL; Dispense 5 uL of 1x MTase-Glo Detection Solution (R) to allow for ADP to be converted to ATP which was then detected with a luciferase reaction.
9; Centrifuge; 15 sec; Centrifuge the assay plate for 15 seconds at 1000 RPM.
10; Incubation; 30 min; Assay plates were incubation at room temperature in the dark.
11; Detection; Luminescence; Plates were read on ViewLux detector (PerkinElmer). Data were normalized to no-enzyme (0% activity) and no-inhibitor (DMSO; 100%) controls, and the resulting percent inhibition data were fitted to a 4-parameter Hill equation using GraphPad Prism.
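Note: plate controls were DMSO vehicle for no effect and no enzyme for full effect; nearly all actives have a fitted effect of over 65% in size.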

The chains behind the UniProt entries cited, without tags or fusion partners.
UniProt Q9BV86, whole entry: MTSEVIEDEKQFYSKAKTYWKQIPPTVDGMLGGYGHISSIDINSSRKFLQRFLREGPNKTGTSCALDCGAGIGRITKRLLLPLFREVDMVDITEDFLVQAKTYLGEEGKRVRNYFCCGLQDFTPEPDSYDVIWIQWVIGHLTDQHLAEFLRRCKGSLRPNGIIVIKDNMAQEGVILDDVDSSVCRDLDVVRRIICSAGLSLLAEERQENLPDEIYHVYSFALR

Compound	activity change, negative = inhibition
O=C(C1CCC1)N1CCN(C/C=C/c2ccccc2)CC1	inactive: 5.11%
CN(C)C1(CNC(=O)c2cccc(Cl)c2)CCCCC1	inactive: -3.92%
CN(C)C1(CNC(=O)c2ccccc2F)CCCCC1	inactive: 8.22%
CN(C)C1(CNC(=O)c2ccccc2[N+](=O)[O-])CCCCC1	inactive: 1.46%
CCCCOc1ccccc1C(=O)NCC1(N(C)C)CCCCC1	inactive: 8.22%
CCOc1cccc(C(=O)NCC2(N(C)C)CCCCC2)c1	inactive: 1.57%
COc1ccc(C(=O)NCC2(N(C)C)CCCCC2)cc1Cl	inactive: 5.85%
COc1cccc(C(=O)NCC2(N3CCOCC3)CCCCC2)c1	inactive: 4.5%
CC(C)COc1ccc(C(=O)NCC2(N(C)C)CCCCC2)cc1	inactive: -1.58%
Cc1cccc(C(=O)NCC2(N(C)C)CCCCC2)c1	inactive: 3.77%
COc1cc(C(=O)NCC2(N(C)C)CCCCC2)cc(OC)c1OC	inactive: 5.63%
CC(C)Oc1ccc(C(=O)NCC2(N(C)C)CCCCC2)cc1	inactive: -3.38%

Reference: PubChem BioAssay AID1645870 (National Center for Advancing Translational Sciences (NCATS), 2021)
